Data published in PubChem BioAssay AID1963597 (National Center for Advancing Translational Sciences (NCATS), 2024).

System: human liver microsomes, metabolic stability half-life
Test: NCATS Human Liver Microsomal (HLM) Stability Profiling
Details: hits give high values
Text: Assay submitter (PI): Dr. Pranav Shah
NIH Center for Advancing Translational Sciences
Pharmacokinetic issues were the leading cause of drug attrition, accounting for approximately 40% of all cases before the turn of the century. To this end, several high-throughput in vitro assays like microsomal stability have been developed to evaluate the pharmacokinetic profiles of compounds in early stages of drug discovery. At NCATS, a single-point rat liver microsomal (RLM) stability assay is used as a Tier I assay, while human liver microsomal (HLM) stability is employed as a Tier II assay. While it is beneficial to have compound libraries screened for HLM stability, the increasing magnitude of hits routinely generated, and the time- and re-source-intensive nature of the assay makes it important to find alternatives. One strategy is to rely on in silico models that have been developed using data generated from these assays. Herein, we describe the development of an HLM stability prediction model using our in-house dataset of ~7,000 compounds, employing both traditional and advanced machine learning methods. […]
The substrate depletion method, also called the in vitro t1/2 method was used to analyze test compounds. […] Sample quantification and analysis was performed using a previously described method (Shah et al., 2016, Siramshetty et al., 2020). […]

`CCOP(=O)(CC)Oc1ccc([N+](=O)[O-])cc1` (stereo unspecified) showed a half-life of 2 h.
